Curated experimental data: melting point values

Data: OPERA 2.9 data sets, kmansouri/OPERA on GitHub.

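These are experimental values that the OPERA curators gathered from public databases to train and test their QSAR models. A listed value is a point estimate from one report or more. Method and conditions are not stated for these values. Where a salt, mixture or single isomer is drawn, the source does not say that exactly this form was tested. Unmarked limits or estimates from the upstream databases cannot be ruled out.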

Melting points are in °C.
Cells with "n/a" have no entry in this list.

SMILES | name | MP (°C)
O=C1CSC(N2CCCCC2)=N1 | 2-piperidin-1-yl-1,3-thiazol-4(5H)-one | 78
CN(C)C(=S)SCCCS(=O)(=O)[O-].[Na+] | n/a | 243
CCCc1ccc(-c2ccc(-c3cc(F)c(C(F)(F)Oc4cc(F)c(F)c(F)c4)c(F)c3)c(F)c2)cc1 | n/a | 83.6
CCCCCCCCCCCCCC(=O)N(C)CC(=O)O | Glycine, N-methyl-N-(1-oxotetradecyl)- | 56.2
O=C(O)c1cncc2ccccc12 | Isoquinoline-4-carboxylic acid | 250
NC(=O)c1ccc(=O)[nH]c1 | 6-Hydroxynicotinamide | 317
Cc1ccc(NC(=O)C(Cl)c2ccccc2)cc1 (stereo not given) | n/a | 145
O=C(O)C1CCCN1C(=O)C12CC3CC(CC(C3)C1)C2 (stereo not given) | 1-(Adamantane-1-carbonyl)-pyrrolidine-2-carboxylic acid | 194
Cc1cc(C2C(=O)Oc3c2cc(C(C)(C)C)cc3C(C)(C)C)cc(C)c1OP1Oc2cc(C(C)(C)C)cc(C(C)(C)C)c2C(C)c2c(cc(C(C)(C)C)cc2C(C)(C)C)O1 (stereo not given) | n/a | 180
O=c1nc(-c2cc(Cl)cc(Cl)c2O)[nH]c2ccccc12 | 2-(3,5-Dichloro-2-hydroxyphenyl)-4(1H)-quinazolinone | 360.8
CC(=O)CC(=O)Nc1ccc(F)cc1 | N-(4-fluorophenyl)-3-oxobutanamide | 102
CCOC(=O)C1(OC(=O)Cc2ccc(Cl)cc2Cl)CCCCC1 | n/a | 44.2
O=Cc1cc2c(cc1[N+](=O)[O-])OCCO2 | 7-nitro-2,3-dihydro-1,4-benzodioxine-6-carbaldehyde | 170
O=C1CCCCCN1SSN1CCCCCC1=O | 1,1'-Disulfanediyldiazepan-2-one | 136.1
CCOC(=O)C1CN(Cc2ccccc2)CCC1=O (stereo not given) | ethyl 1-benzyl-4-oxopiperidine-3-carboxylate | 162
CCOC(=O)c1[nH]c(C)c(C(=O)O)c1C | n/a | 104
Cc1c(C(=O)O)oc2c1C(=O)CCC2 | n/a | 228
Cc1ccc(-c2nn(-c3ccccc3)cc2C(=O)O)cc1 | 3-(4-Methylphenyl)-1-phenyl-1H-pyrazole-4-carboxylic acid | 230
CC(CC(=O)O)n1nc2ccccc2n1 (stereo not given) | 3-(2H-Benzotriazol-2-yl)butanoic acid | 82.5
C[C@H](Nc1ncnc2nc[nH]c12)c1cc2cccc(Cl)c2c(=O)n1-c1ccccc1 | Duvelisib | 190
COc1ccc(N=Nc2c(O)ccc3ccccc23)c([N+](=O)[O-])c1 | 1-((4-Methoxy-2-nitrophenyl)azo)-2-naphthol | 206
Nc1nc(-c2cc(Cl)ccc2Cl)cs1 | 4-(2,5-dichlorophenyl)-1,3-thiazol-2-amine | 163
O=C(O)C1CCS(=O)(=O)C1 (stereo not given) | tetrahydrothiophene-3-carboxylic acid 1,1-dioxide | 136
CC(=O)O.CCCCCCCCCCCCCC/C=C\CCNCCCNCCCN | n/a | 144
C=CC(C)(CCC=C(C)C)OC(=O)N(C)C (stereo not given) | n/a | -50.15
Cc1ccc(O)c(N=Nc2ccccc2[N+](=O)[O-])c1 | 4-Methyl-2-[2-(2-nitrophenyl)diazenyl]phenol | 117
Cc1nc(N)sc1-c1ccccc1 | 4-Methyl-5-phenyl-1,3-thiazol-2-amine | 164
CCn1c(=S)[nH]c2ccccc21 | 1-Ethyl-1H-benzoimidazole-2-thiol | 136
C=CCCCCCCCCC(=O)N[C@@H](Cc1ccccc1)C(=O)O | Undecylenoyl phenylalanine | 78.9
CCCCCCCCN=c1cc[nH]cc1 | N-Octylpyridin-4(1H)-imine | 65
COc1cc([N+](=O)[O-])ccc1N=NC(C(C)=O)C(=O)Nc1ccc(S(=O)(=O)NCCCN(C)C)cc1 (stereo not given) | n/a | 198.4
COC(=O)C=C1CCCC1 | Methyl cyclopentylideneacetate | -56
O=C(O)c1ccc(NS(=O)(=O)c2ccc(Cl)cc2)cc1 | 4-[(4-Chlorobenzene-1-sulfonyl)amino]benzoic acid | 208
COc1ccc2c(c1)CC[C@@H]1[C@@H]2CC[C@]2(C)[C@@H](OC(C)=O)CC[C@@H]12 | n/a | 105
NS(=O)(=O)c1ccc(C=CC(=O)O)cc1 | 3-(4-Sulfamoylphenyl)prop-2-enoic acid | 275
Cc1ccc(S(N)(=O)=O)cc1C(=O)O | 2-methyl-5-sulfamoylbenzoic acid | 182
O=C(c1ccccc1)c1ccc(OCC(O)COc2ccc(C(=O)c3ccccc3)c(O)c2)cc1O | n/a | 152.3
C1CCCCCC2=C(CCCC1)CCCO2 | n/a | -9
CC(C)CC(C)OC(=O)CC(C(=O)OC(C)CC(C)C)S(=O)(=O)[O-].[Na+] (stereo not given) | n/a | 175
c1cc(OCC2CO2)cc(N(CC2CO2)CC2CO2)c1 (stereo not given) | n/a | -31.07
Cc1sc2nc(C)n(N)c(=O)c2c1C | 3-amino-2,5,6-trimethylthieno[2,3-d]pyrimidin-4(3H)-one | 205
O=C(O)c1cc(S(=O)(=O)Cl)c(Cl)cc1Cl | 2,4-Dichloro-5-(chlorosulphonyl)benzoic acid | 160
CCCCCCCCC(C)C=O (stereo not given) | 2-Methyldecanal | -36
CC1(C)OCC(CO)O1 (stereo not given) | Solketal | -38.5
NC(=O)NC(CC(=O)O)c1ccc(Cl)cc1 (stereo not given) | 3-(Carbamoylamino)-3-(4-chlorophenyl)propanoic acid | 199
CCc1n[nH]c(=S)n1N | 4-amino-5-ethyl-4H-1,2,4-triazole-3-thiol | 144

The 4 lowest values of MP among the entries above:

SMILES | name | MP (°C)
COC(=O)C=C1CCCC1 | Methyl cyclopentylideneacetate | -56
C=CC(C)(CCC=C(C)C)OC(=O)N(C)C (stereo not given) | n/a | -50.15
CC1(C)OCC(CO)O1 (stereo not given) | Solketal | -38.5
CCCCCCCCC(C)C=O (stereo not given) | 2-Methyldecanal | -36